From patent US20240067693A1, “POLYPEPTIDES AND USES THEREOF” (MEDIMMUNE LIMITED, priority 2020, published 2024)

What was measured:
[1] = target: T1, rat calcitonin receptor (rat CTR) (Rattus norvegicus, UniProt P32214); assay: cAMP production in HEK cells with stable recombinant expression of rat calcitonin receptor (rat CTR); assay type: cell-based; conditions: assay buffer with 0.1% BSA
T1 construct: expressed in transfected cells
T1 sequence (P32214 25-516): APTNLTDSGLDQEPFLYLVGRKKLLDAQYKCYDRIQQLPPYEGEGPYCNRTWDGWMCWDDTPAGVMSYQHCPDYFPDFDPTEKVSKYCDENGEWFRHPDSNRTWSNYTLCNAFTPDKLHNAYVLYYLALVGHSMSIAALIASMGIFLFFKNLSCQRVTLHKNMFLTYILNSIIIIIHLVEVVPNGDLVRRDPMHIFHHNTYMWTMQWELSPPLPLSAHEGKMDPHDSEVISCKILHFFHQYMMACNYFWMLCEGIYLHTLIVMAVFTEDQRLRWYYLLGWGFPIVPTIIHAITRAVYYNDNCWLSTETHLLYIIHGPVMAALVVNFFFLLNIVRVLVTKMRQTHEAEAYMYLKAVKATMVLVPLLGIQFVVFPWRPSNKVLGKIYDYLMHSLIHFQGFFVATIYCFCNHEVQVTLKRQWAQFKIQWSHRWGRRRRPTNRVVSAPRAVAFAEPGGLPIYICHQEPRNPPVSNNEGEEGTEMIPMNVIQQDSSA
Experimental: (§1) The functional activities of lipidated pramlintide analogue peptides, such as cAMP production, were tested in 1321N1 cell line with stable recombinant expression of human calcitonin receptor (hCTR) or human amylin receptor (calcitonin receptor co-expressed with receptor activity modifying protein, RAMP3) (hAMYR3) or HEK cells with stable recombinant expression of rat calcitonin receptor (rat CTR) or rat amylin receptor (calcitonin receptor co-expressed with receptor activity modifying protein, RAMP3) (Rat AMYR3). […]
(§2) The test peptide stock was prepared in DMSO and diluted in assay buffer to reach stated concentrations and transferred in duplicates into a 384-black shallow well microtitre assay plate (Corning # 3676). Cells were added to the assay plate, incubated at room temperature for 30 minutes and the cAMP level measured using cAMP dynamic 2 HTRF kit (Cisbio, Cat # 62AM4PEJ), following the two step protocol as per manufacturer's recommendations. The plates were read on an Envision (Perkin Elmer) using excitation wavelength of 320 nm and emission wavelengths of 620nm & 665 nm.
(§3) Data was transformed to % Delta F as described in the manufacturer's guidelines and analyzed as percent activation of maximal amylin or calcitonin effect by 4-parameter logistic fit to determine EC50 values. […]

lean rats = assay: Rat acute food intake study; assay type: in vivo; conditions: lean male Sprague Dawley rats, 60 nmol/kg peptide 1 (pramlintide) subcutaneously
Experimental: Male Sprague Dawley rats were obtained from Taconic Denmark, ApS at approximately 7 weeks of age. Rats were implanted with a microchip for identification, housed 4/cage with enrichment, free access to food and water, and allowed one week acclimatisation while non-invasive characterization was performed. Rats were on a 12:12 light:dark cycle that switches at 1pm:1am. Food intake was monitored via the HM2 system (Lafayette Instrument) that allows for monitoring in a home cage. As each rat enters an access tunnel to feed, an IR beam is broken, and the implanted microchip is read. Resulting changes to food weight is then assigned to the specific animal. Social order has shown no impact to overall feeding patterns and amounts.
Rats were sorted into groups based on Day -1 body weight and 24-hour accumulated food intake (n=7 per group). On Day 0 rats were weighed, then fasted for 6 hours. Thirty (30) minutes prior to the reintroduction of food, rats were dosed subcutaneously (5 mL/kg) with 20 nmol/kg of test compound or 60 nmol/kg peptide 1 (pramlintide) diluted in an appropriate vehicle, after which food was returned, and lights went out. Automated food intake was monitored for the following 3 days, and rats were weighed once per day.
Food intake per rat was batched into 1-hour intervals and integrated into Gubra's GubraView data management system. Discrete food intake data was exported into MS Excel from which cumulative food intake data was generated. Cumulative food intake data was then transposed into GraphPad Prism (v8.0.1) for analysis of dark period feeding

[2] = target: T2, human calcitonin receptor (hCTR) (Homo sapiens, UniProt P30988); assay: cAMP production in 1321N1 cells with stable recombinant expression of human calcitonin receptor (hCTR); assay type: cell-based; conditions: assay buffer with 0.1% BSA
T2 construct: expressed in transfected cells
T2 sequence (P30988 25-474): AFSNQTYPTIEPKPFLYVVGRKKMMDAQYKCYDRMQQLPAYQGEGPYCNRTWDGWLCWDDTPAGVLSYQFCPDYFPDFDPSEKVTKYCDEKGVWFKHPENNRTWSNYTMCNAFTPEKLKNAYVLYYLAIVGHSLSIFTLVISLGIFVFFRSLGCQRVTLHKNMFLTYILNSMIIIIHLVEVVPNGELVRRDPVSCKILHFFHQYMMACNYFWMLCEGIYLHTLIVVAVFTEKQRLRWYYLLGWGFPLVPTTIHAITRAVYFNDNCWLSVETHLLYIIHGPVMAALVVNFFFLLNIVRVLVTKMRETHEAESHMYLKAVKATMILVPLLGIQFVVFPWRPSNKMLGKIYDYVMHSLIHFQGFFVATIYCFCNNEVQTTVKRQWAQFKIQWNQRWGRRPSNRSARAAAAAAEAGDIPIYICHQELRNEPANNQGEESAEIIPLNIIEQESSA
Experimental: as §1, §2, §3

[3] = Roth et al. Br J Pharmacol 2012; cited from earlier work
[4] = target: T3, human amylin receptor (calcitonin receptor co-expressed with receptor activity modifying protein, RAMP3) (hAMYR3) (Homo sapiens, UniProt O60896+P30988); assay: cAMP production in 1321N1 cells with stable recombinant expression of human amylin receptor (hAMYR3); assay type: cell-based
T3 construct: expressed in transfected cells
T3 sequence (P30988 25-474): T2 sequence (P30988 25-474)
T3 sequence (O60896 24-148 partner): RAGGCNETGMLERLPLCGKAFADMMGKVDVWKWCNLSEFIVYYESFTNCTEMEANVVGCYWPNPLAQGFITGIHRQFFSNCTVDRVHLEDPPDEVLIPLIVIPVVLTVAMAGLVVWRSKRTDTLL
Experimental: The functional activities of lipidated pramlintide analogue peptides, such as cAMP production, were tested in 1321N1 cell line with stable recombinant expression of human calcitonin receptor (hCTR) or human amylin receptor (calcitonin receptor co-expressed with receptor activity modifying protein, RAMP3) (hAMYR3) or HEK cells with stable recombinant expression of rat calcitonin receptor (rat CTR) or rat amylin receptor (calcitonin receptor co-expressed with receptor activity modifying protein, RAMP3) (Rat AMYR3).
Cryopreserved cell stock was thawed rapidly in a water-bath, suspended in assay buffer (0.1% BSA (Sigma # A3059) in HBSS (Sigma # H8264) with 25 mM HEPES, pH 7.4 and containing 0.5 mM IB MX (Sigma# 17018)) and spun at 240×g for 5 minutes. Cells were re-suspended in assay buffer at a batch-dependent optimized concentration (e.g. hCTR cells at 0.125×10^5 cells/mL, hAMYR3 cells at 0.125×10^5 cells/mL, rat CTR cells at 1x10^5 cells/mL, rat AMYR3 at 2×10^5 cells/mL).
as §2
Data was transformed to % Delta F as described in the manufacturer's guidelines and analyzed as percent activation of maximal amylin or calcitonin effect by 4-parameter logistic fit to determine EC50 values. The selectivity of a peptide to hAMYR vs hCTR is defined as a ratio of EC50 values at the two receptors.

EC50 [1]: 70 pM | EC50 [2]: 160 pM | Ratio (selectivity hAMYR vs hCTR, ratio of EC50 values at the two receptors) ([4]; EC50 hCTR / EC50 hAMYR3): 16 | EC50 ([4]; cAMP, 1321N1 cells, assay buffer with 0.1% BSA): 10 pM | selectivity to hAMYR as compared to hCTR ([4]; measured using cAMP release from binding to hAMYR and hCTR): at least 10 fold
Structure (SMILES): CC[C@H](C)[C@H](NC(=O)[C@@H]1CCCN1C(=O)CNC(=O)[C@H](Cc1ccccc1)NC(=O)[C@H](CC(N)=O)NC(=O)[C@H](CC(N)=O)NC(=O)[C@H](CO)NC(=O)[C@H](CO)NC(=O)[C@H](Cc1c[nH]cn1)NC(=O)[C@@H](NC(=O)[C@H](CC(C)C)NC(=O)[C@H](Cc1ccccc1)NC(=O)[C@H](CC(N)=O)NC(=O)[C@H](C)NC(=O)[C@H](CC(C)C)NC(=O)[C@H](CCCNC(=N)N)NC(=O)[C@H](CCC(N)=O)NC(=O)[C@@H](NC(=O)[C@H](C)NC(=O)[C@@H]1CSSC[C@H](NC(=O)[C@@H](N)CCCCN)C(=O)N[C@@H](CC(N)=O)C(=O)N[C@@H]([C@@H](C)O)C(=O)N[C@@H](C)C(=O)N[C@@H]([C@@H](C)O)C(=O)N1)[C@@H](C)O)C(C)C)C(=O)N[C@@H](CC(C)C)C(=O)N1CCC[C@H]1C(=O)N1CCC[C@H]1C(=O)N[C@H](C(=O)N[C@@H](CC(N)=O)C(=O)N[C@H](C(=O)NCC(=O)N[C@@H](CO)C(=O)N[C@@H](CC(N)=O)C(=O)N[C@H](C(=O)N[C@@H](Cc1ccc(O)cc1)C(N)=O)[C@@H](C)O)C(C)C)[C@@H](C)O [Peptide 1, reference compound]
Cummulative food intake (% vehicle treated intake) At 12 h (lean rats; at 12 h): 71.6 % vehicle treated intake | Cummulative food intake (% vehicle treated intake) At 24 h (lean rats; at 24 h): 85.6 % vehicle treated intake | Cummulative food intake (% vehicle treated intake) At 48 h (lean rats; at 48 h): 98.7 % vehicle treated intake | half-life in human [3]: 20 to 45 min
